# Shown are results outside the selection of highest values, which stands elsewhere.
# Tested on: mPer2Luc MEF
# Assay: PER2::LUC luminescence relative to vehicle control (fold of vehicle); higher = higher PER2::LUC reporter signal
# Details: 10 µM
# How it was run: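 In 384-well plates, ~3000 mPer2Luc reporter mouse embryonic fibroblasts per well were cultured in DMEM with 10% FBS at 37 °C and 5% CO2 for 48 h before compounds from commercial libraries were added at 10 μM. ONE-Glo luciferase readings were taken 24 h and 30 h after treatment. Each value is PER2::LUC luminescence given as fold of vehicle control.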
smiles,measurement,setting,value
N/C(=N/CCc1ccc(I)cc1)SCCCc1cnc[nH]1,PER2::LUC luminescence,time after treatment 24 h,0.772
same,PER2::LUC luminescence,time after treatment 30 h,0.849

# Reference: the supplement of paper PMC9334596
